From patent US6750375B2, “Transgenic mouse comprising a disruption in an RGS9 gene” (California Institute of Technology, priority 2000, dated 2004)

System: RGS9 knockout mice and their wild type littermates
Assay: Locomotor activity (photobeam cage rack) in unlesioned animals
Details: mouse, in vivo
Protocol: RGS9 knockout mice and their wild type littermates were placed in the photobeam cage rack activity system. The photobeam cage rack activity system was made by San Diego Instruments. Single events represent disruption of two distinct light beams 10 cm apart. Before drug administration, animals were allowed to habituate for 30 min. which was scored as baseline activity. […] All drugs were injected intraperitoneally. Drug effects were assessed for 30 min. Bodyweight was measured prior to all drug applications.
Locomotion in Unlesioned Animals

**Q.** Which results are given for `CCCN1CCC[C@@H]2Cc3n[nH]cc3C[C@H]21` [quinpirole]?
**A.** locomotion: dramatically reduced locomotion; locomotion, RGS9 deficient animals vs wild type: trend of being less affected
